Laboratory results as given in patent publication US9121847B2, “Three-dimensional microfluidic platforms and methods of use thereof” (Massachussetts Institute of Technology, priority 2008, dated 2015).

Assay: Gradient of fluorescent dextran across collagen gel scaffold, dual fluid-flow path device, static conditions

## dextran
40 kDa dextran, initial 20 μg mL^−1 in one channel, collagen scaffold, static
  time to reach steady state concentration profile in the gel cage: ≤ 40 min
Value assumed in finite element model compared with steady state experimental data, 40 kDa dextran in collagen gel
  diffusion coefficient: 1×10^−6 cm^2 s^−1
